These results are taken from PMC4090178, “Structural and Biochemical Characterization of Human PR70 in Isolation and in Complex with the Scaffolding Subunit of Protein Phosphatase 2A” (PLoS ONE, 2014).

Test in all cases: ITC; B''-constructs at 20–40 µM in the cell titrated with 200–300 µM Aα or Aβ constructs; 15°C; 20 mM Tris pH 7.5, 200 mM NaCl, 2 mM CaCl2; 1:1 binding model
Holding throughout (conditions): both partners purified

One experiment addresses T1, PR72 (24–529) (UniProt Q06190-2 24-529).
T1 construct: PR72 (B''α2), regulatory B'' subunit of PP2A, product of PPP2R3A; residues 24–529; the end at 529 fits the PR72 isoform of 529 residues, not PR130; also called PR72 subunit (residue 24–529); B''α2; source: E. coli BL21(DE3), purified (IMAC, TEV cleavage, gel filtration); not shown: His tag, N-terminal, cleaved
T1 sequence (looked up): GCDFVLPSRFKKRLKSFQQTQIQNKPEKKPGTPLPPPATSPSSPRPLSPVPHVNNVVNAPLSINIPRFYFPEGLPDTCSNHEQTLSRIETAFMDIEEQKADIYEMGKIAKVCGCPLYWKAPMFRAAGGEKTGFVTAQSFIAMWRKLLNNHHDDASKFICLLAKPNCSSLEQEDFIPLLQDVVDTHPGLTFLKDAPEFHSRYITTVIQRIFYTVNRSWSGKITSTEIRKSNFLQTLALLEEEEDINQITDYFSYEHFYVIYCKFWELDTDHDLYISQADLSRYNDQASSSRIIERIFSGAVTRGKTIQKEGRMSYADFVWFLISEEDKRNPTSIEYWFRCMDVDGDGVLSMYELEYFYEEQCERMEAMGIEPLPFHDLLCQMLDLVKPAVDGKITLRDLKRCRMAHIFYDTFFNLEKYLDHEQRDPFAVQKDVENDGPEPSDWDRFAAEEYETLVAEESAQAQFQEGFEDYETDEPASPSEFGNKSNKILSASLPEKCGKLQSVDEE

In another experiment the target is T2, PR70 (25–575) (human, UniProt Q9Y5P8 25-575).
T2 construct: PR70 (B''β), regulatory B'' subunit of PP2A, human, product of PPP2R3B; also called B''/PR70; source: E. coli BL21(DE3), purified (IMAC, TEV cleavage, gel filtration); not shown: His tag, N-terminal, cleaved
T2 sequence (looked up): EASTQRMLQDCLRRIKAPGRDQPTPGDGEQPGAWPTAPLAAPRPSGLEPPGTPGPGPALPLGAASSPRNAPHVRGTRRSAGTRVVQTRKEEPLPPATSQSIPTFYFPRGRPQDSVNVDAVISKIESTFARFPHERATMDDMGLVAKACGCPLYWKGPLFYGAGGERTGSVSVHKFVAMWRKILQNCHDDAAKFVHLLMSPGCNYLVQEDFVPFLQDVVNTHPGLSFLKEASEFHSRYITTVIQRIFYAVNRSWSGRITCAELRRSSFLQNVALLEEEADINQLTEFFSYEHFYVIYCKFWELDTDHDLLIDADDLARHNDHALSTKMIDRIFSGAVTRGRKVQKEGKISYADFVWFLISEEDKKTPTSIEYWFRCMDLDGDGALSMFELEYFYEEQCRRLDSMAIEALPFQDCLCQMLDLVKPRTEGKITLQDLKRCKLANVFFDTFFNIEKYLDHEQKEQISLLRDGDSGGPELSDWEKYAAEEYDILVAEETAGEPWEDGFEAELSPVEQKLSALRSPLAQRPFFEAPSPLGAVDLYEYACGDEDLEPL

The next experiment concerns the target T3, PR70 (105–575) (human, UniProt Q9Y5P8 105-575).
T3 construct: PR70 (B''β), regulatory B'' subunit of PP2A, human, product of PPP2R3B; source: E. coli BL21(DE3), purified (IMAC, TEV cleavage, gel filtration); not shown: His tag, N-terminal, cleaved
T3 sequence (looked up): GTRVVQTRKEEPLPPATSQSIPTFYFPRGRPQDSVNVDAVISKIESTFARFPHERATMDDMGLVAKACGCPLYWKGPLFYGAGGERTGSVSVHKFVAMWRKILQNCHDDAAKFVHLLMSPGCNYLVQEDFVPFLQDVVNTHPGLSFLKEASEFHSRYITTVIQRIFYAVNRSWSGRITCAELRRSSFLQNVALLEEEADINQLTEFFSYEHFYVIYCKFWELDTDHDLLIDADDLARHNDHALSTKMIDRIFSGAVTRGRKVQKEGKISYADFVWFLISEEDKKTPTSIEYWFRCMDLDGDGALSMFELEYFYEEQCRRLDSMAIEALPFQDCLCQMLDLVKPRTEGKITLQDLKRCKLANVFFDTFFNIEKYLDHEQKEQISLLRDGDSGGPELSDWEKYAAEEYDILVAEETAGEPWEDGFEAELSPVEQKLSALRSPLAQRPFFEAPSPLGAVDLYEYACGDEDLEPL

B1: A α (HEAT1–15) (natural protein)
chain: not shown
notes: PP2A scaffolding subunit A, α isoform, product of PPP2R1A; HEAT repeats 1–15; calculated molecular weight 65.3 kD; also called full length A-subunit; scaffolding A subunit; source: E. coli BL21(DE3), purified (IMAC, TEV cleavage, gel filtration); not shown: His tag, N-terminal, cleaved
B1: the figures for the dH with PR72 (24–529), with PR70 (25–575) and with PR70 (105–575) were -42.7 ± 2.09 kJ/mol, -94.56 ± 0.418 kJ/mol and -82.4 ± 0.837 kJ/mol, respectively. Also, the “stoichiometry N” value in the experiment with PR72 (24–529) was 0.94 ± 0.01; with PR70 (25–575), 0.84 ± 0.02; in the experiment with PR70 (105–575), 0.85 ± 0.03.
